In assay [1] the target is T1, human AR (Homo sapiens, UniProt P10275). The assay can be described thus: AR whole cell competitive binding assay (COS-1 cells, 3H-DHT). To be noted: read-out: AR Binding Ki.
Assay [2] deals with T1, human AR. Description: Co-transfection assay, AR antagonist activity (CV-1 cells, in presence of DHT). To be noted: read-out: AR Antagonist CV-1 Cells Potency.
The target of assay [3] is T1, human AR. The assay can be described thus: Co-transfection assay, AR agonist activity (CV-1 cells, MTV-LUC reporter). To be noted: read-out: AR Agonist CV-1 Cells Potency.

Amino acid sequences for entries named in this document (tags omitted). A change or cut given only in a name is not applied to a line headed by its entry.
UniProt P10275: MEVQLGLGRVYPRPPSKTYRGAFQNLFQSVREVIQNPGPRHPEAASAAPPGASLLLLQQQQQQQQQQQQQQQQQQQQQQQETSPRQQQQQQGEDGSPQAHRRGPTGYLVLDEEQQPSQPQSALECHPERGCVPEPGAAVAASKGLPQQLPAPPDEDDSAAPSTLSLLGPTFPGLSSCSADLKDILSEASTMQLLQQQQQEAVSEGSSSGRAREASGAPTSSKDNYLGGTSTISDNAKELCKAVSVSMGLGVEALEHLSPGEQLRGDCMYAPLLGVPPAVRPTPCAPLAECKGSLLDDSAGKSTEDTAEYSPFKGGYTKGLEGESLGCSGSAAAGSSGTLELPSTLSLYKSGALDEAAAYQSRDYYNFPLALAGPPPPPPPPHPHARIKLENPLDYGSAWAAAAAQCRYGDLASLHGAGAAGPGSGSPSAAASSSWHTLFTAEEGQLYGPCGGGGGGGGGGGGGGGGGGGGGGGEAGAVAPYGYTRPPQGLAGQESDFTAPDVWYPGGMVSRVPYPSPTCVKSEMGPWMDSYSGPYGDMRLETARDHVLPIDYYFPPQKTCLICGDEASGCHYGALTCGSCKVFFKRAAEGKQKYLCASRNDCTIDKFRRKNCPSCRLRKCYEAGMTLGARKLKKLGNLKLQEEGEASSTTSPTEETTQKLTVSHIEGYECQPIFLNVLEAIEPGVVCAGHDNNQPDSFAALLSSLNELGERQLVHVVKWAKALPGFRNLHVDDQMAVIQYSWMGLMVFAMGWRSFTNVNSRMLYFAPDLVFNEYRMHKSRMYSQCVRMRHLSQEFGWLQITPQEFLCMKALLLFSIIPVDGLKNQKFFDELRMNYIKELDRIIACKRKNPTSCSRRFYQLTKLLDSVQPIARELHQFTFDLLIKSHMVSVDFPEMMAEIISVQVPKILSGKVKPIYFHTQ

SMILES strings stand for the structures.

One may read the Ki as a dissociation constant, usually derived from enzyme kinetics or from competition with a known ligand. Turning to `CCCNc1ccc2c(C(F)(F)F)cc(=O)[nH]c2c1` [Compound 513, 7-Propylamino-4-trifluoromethyl-2(1H)-quinolinone], on human AR [1], the Ki amounted to 0.037 µM.
Still for that read-out and setting: in the case of `Cc1cc(=O)[nH]c2ccc(N(CC(F)(F)F)CC(F)(F)F)cc12` [Compound 377, 6-(bis-2,2,2-Trifluoroethyl)amino-4-methyl-2(1H)-quinolinone] it was 0.0014 µM; in that of `CCN(c1ccc2[nH]c(=O)cc(C(F)(F)F)c2c1)C(C)C` [Compound 239, 6-(N-Ethyl-N-isopropyl)amino-4-trifluoromethyl-2(1H)-quinolinone], 0.0074 µM.
For `O=c1cc(C(F)(F)F)c2ccc(NCC(F)(F)C(F)(F)F)cc2[nH]1` [Compound 520, 7-(2,2,3,3,3-Pentafluoropropyl)amino-4-trifluoromethyl-2(1H)-quinolinone], on human AR [1], the Ki was 0.036 µM. Further, the IC50 at human AR [2] was determined as 0.058 µM.
Consider `CCCNc1ccc2[nH]c(=O)cc(C(F)(F)F)c2c1` [Compound 204, 6-Propylamino-4-trifluoromethyl-2(1H)-quinolinone], for which the Ki at human AR [1] amounted to 0.054 µM. In addition, the EC50 at human AR [3] is 2.02 µM.
On to `CCC(C)c1cc2c(C(F)(F)F)cc(=O)[nH]c2cc1N` (stereo not drawn) [Compound 581, 7-Amino-6-sec-butyl-4-trifluoromethyl-2(1H)-quinolinone], for which the EC50 at human AR [3] turned out to be 0.065 µM.
Turning to `C=CC(C)(C)Nc1ccc2c(C(F)(F)F)cc(=O)[nH]c2c1` [Compound 559, 7-(1,1-Dimethylallyl)amino-4-trifluoromethyl-2(1H)-quinolinone], on human AR [1], the Ki was determined as 0.118 µM. Moreover, the IC50 at human AR [2] was found to be 0.122 µM.
For `CCCCN(CCCC)c1ccc2[nH]c(=O)cc(C(F)(F)F)c2c1` [Compound 220, 6-Dibutylamino-4-trifluoromethyl-2(1H)-quinolinone], the Ki at human AR [1] amounted to 0.222 µM.
Consider `CC(C)Nc1ccc2c(C(F)(F)F)cc(=O)[nH]c2c1` [Compound 514, 7-Isopropylamino-4-trifluoromethyl-2(1H)-quinolinone], for which the Ki on human AR [1] was determined as 0.079 µM.

(Values after patent publication US7696246B2 (Ligand Pharmaceuticals Incorporated, priority 1999, dated 2010).)
